## Measured affinities in a library of Ab-95 light chain variants

From the AlphaSeq antibody data of Engelhart et al. 2022 (doi:10.1038/s41597-022-01779-4), copy in the FLAb collection.

Target: peptide PDVDLGDISGINAS, taken from heptad repeat 2 (HR2) of SARS-CoV-2 spike.

Parent scFv Ab-95: VH joined to VL by three GGGGS repeats. Changes lie in the light chain CDRs alone.
VH: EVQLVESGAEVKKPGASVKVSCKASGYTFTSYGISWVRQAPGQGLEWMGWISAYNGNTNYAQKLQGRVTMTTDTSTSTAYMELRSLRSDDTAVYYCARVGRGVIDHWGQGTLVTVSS
VL: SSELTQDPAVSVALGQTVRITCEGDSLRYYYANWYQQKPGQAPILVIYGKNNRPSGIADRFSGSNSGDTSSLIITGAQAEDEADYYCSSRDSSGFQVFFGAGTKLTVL

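The starting antibody came from a phage panning campaign against this peptide. In library AAYL52, one, two or three CDR residues were substituted; doubles and triples were drawn at random. The assay is AlphaSeq: two haploid yeast populations carry antibody and antigen on their surface. Pairs that bind mate more often; barcode pairs of the diploids are counted by sequencing. Each replicate has its own calibration line, from reference interactions of the BCL2 family. Mating was done three times.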

Changes read parent residue, position, new residue, counted from the first residue of the VL shown.
Affinities are written as log10 Kd with Kd in nM; a lower number is a better binder.
The mean shown is taken over the replicates in which the pair was detected.
Where no diploid with the target was found in that replicate, the entry reads "n.d.": below detection, most likely a poor binder, though not proof of it.
The list is sorted by this average, lowest first, undetected variants last.

log10 Kd, replicates | log10 Kd (nM), mean | changes
1.61 1.63 1.27 | 1.50 | E23Q+R28Q+S92E
1.94 1.92 2.37 | 2.08 | S88K+V97L
2.34 2.24 1.81 | 2.13 | G24W+P54S
2.33 2.12 2.30 | 2.25 | Y31G+K50E+S93C
2.55 2.61 2.21 | 2.46 | E23G+S26N+A32V
2.40 2.75 2.75 | 2.63 | D25F+S55A+F98P
3.20 2.73 2.36 | 2.76 | S26R+R28N+A32R
3.23 2.28 2.79 | 2.76 | P54V+S88C
3.05 2.89 2.80 | 2.91 | K50N+R53C+S88M
3.15 3.04 2.61 | 2.93 | A32T+V97D
3.15 n.d. n.d. | 3.15 | G24M+R90P+S92P
3.03 3.01 3.69 | 3.24 | P54G+F98L
3.09 3.45 n.d. | 3.27 | E23Y+Y29V+G94M
n.d. 3.35 n.d. | 3.35 | N33E+S89C+Q96C
n.d. 3.43 n.d. | 3.43 | E23I+G24F
3.18 3.40 3.91 | 3.50 | E23G+S26I+S92T
2.94 3.54 4.16 | 3.55 | D25A+Y29W+G94R
n.d. 3.60 n.d. | 3.60 | P54D+S88G+Q96G
3.72 n.d. n.d. | 3.72 | R90V+F95C+Q96C
4.34 3.52 3.41 | 3.75 | A32V+S55F+S92G
n.d. n.d. 3.81 | 3.81 | N33Y+P54R+S88D
3.83 n.d. n.d. | 3.83 | K50V+N51P+F95V
3.41 5.63 2.66 | 3.90 | Y30W+Y31V+K50I
n.d. n.d. 3.91 | 3.91 | S26M+S89V+R90N
3.59 n.d. 4.28 | 3.93 | G49W+N52P+G94R
5.43 2.75 4.25 | 4.14 | S55L+R90L+F98H
2.88 5.41 n.d. | 4.14 | E23M+S88R+S93D
5.29 n.d. 3.17 | 4.23 | L27N+S89K+Q96K
4.25 n.d. n.d. | 4.25 | Y30L+G49M+R90E
3.54 5.10 n.d. | 4.32 | G24L+S55H+V97S
4.57 n.d. 4.13 | 4.35 | G49K+K50I+S88P
5.20 n.d. 3.65 | 4.42 | Y29D+G49P+K50R
4.49 4.04 4.89 | 4.47 | K50L+S92E+G94M
4.51 n.d. n.d. | 4.51 | S26M+S55K+S88P
n.d. 5.54 n.d. | 5.54 | R90F+G94Y+Q96G
n.d. n.d. n.d. | n.d. | G24E+Y30S+D91L
n.d. n.d. n.d. | n.d. | G24A+D25G+A32R
n.d. n.d. n.d. | n.d. | Y30K+N51V+V97F
n.d. n.d. n.d. | n.d. | L27D+K50Y+F95E
n.d. n.d. n.d. | n.d. | S26C+S88N+R90K
n.d. n.d. n.d. | n.d. | Y29D+D91R+F95V
n.d. n.d. n.d. | n.d. | G24A+S89R+R90S
n.d. n.d. n.d. | n.d. | G24Q+L27A+R90D

Excerpt, the final 6 entries:

changes | log10 Kd, replicates | log10 Kd (nM), mean
Y30K+N51V+V97F | n.d. n.d. n.d. | n.d.
L27D+K50Y+F95E | n.d. n.d. n.d. | n.d.
S26C+S88N+R90K | n.d. n.d. n.d. | n.d.
Y29D+D91R+F95V | n.d. n.d. n.d. | n.d.
G24A+S89R+R90S | n.d. n.d. n.d. | n.d.
G24Q+L27A+R90D | n.d. n.d. n.d. | n.d.

In this assay the parent's reference entry averaged 2.31; its copy inside this library read 2.25.
Nonspecific signal, from three strains lacking the peptide, appeared in 28% of pairings of library AAYL52, centred on 3.91 (5% of these signals below 2.90); values are not corrected for it.